From PubChem BioAssay
Hits are enriched below; roughly 4.2% of the tested compounds scored in any of these assays.
UUG fidelity: modulators of start codon recognition fidelity in yeast; S. cerevisiae UUG-firefly luciferase reporter, luminescence/redox ratio; activity score, % at 18.7 µM; 0.13% of 350,000 active;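 active = replicate mean at a twofold rise or more, about +100% in these data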;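 also: firefly luciferase made from a UUG start codon reports start codon fidelity; reporter light over untreated wells divided by growth signal over untreated wells; some hits fall short of that in this replicate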
ALR H2O2 inh: inhibitors of human sulfhydryl oxidase ALR | 290,000 compounds, 3.8% hits | AID 485317 | inhibition, % (test concentration not listed) | P55789 | purified ALR, DTT oxidation, H2O2 HRP-luminol luminescence;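 active = mean and each replicate at 75% or more; inconclusive = only one of the two met; inactive = neither met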;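 also: stock transfer was 7.5 nL into about 7.5 µL; 0% = neutral wells and 100% = wells with inactivated enzyme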
HDAC3 inh: HDAC3 deacetylase inhibitors, primary screen, biochemical, fluorescence, cell-free homogeneous; Histone deacetylase 3 (Homo sapiens), O15379; recombinant HDAC3, fluorogenic peptide/trypsin coupled; inhibition, % at 8.3 µM; hit rate 0.15% among 320,000; AID 2718, 2010; in the data active = inhibition above about 26%, passing the limit was not always enough; inconclusive = no clear call, values can overlap the other calls
NALP1 yeast inh: NALP1 inflammasome inhibitors in reconstituted yeast, colorimetric, S. cerevisiae, triplicate retest. inhibition, % at 10 µM. AID 2071, 2009. hit rate 0.61% among 280,000. S. cerevisiae NALP1/ASC/caspase-1 growth, X-gal OD620, 72 h; in the data active = inhibition mostly above about 24%, no sharp cut-off; inactive = mostly below about 32%
MC4R antag cAMP: MC4R antagonists of cAMP signaling, primary screen, cell-based, TR-FRET, antagonist arm of biased-ligand search; Melanocortin receptor 4 (Homo sapiens), P32245; MC4R-expressing cells, MTII-stimulated cAMP, LANCE TR-FRET; inhibition, % at 6.5 µM; hit rate 0.48% among 360,000; AID 540295, 2011;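 active = inhibition above its plate's cutoff, the mean of tested wells on that plate plus 3 SD, cut at about 29% in these data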;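 note: 0% = Melanotan II alone and 100% = Melanotan II plus saturating MCL0020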
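Material: human MC4R-expressing U2OS cells. Probe or stimulus: Melanotan II challenge. Dosing: 6.5 µM single dose. Times: 30-min compound, 1-h challenge, 1-h detection, room temperature. Technique: TR-FRET with Eu-cAMP and labeled anti-cAMP, 671 nm. Replication: singlicate.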
MC4R ag barr: MC4R agonists recruiting beta-arrestin, primary screen, cell-based, luminescence, agonist arm of biased-ligand search. Melanocortin receptor 4 (Homo sapiens), P32245. U2OS MC4R beta-arrestin complementation; percent of melanotan II response, DMSO zero. activation, % at 8.9 µM. hit rate 0.98% among 360,000. AID 540308, 2011;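 active = activation above a per-plate cutoff, the mean activation of sample wells on that plate plus 3 SD, cut at about 8% in these data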
An asterisk follows results filed as active; ? = inconclusive; · = no result given.

By UniProt entry, the sequences of proteins in these tests, tags left out.
Melanocortin receptor 4 (Homo sapiens), P32245, UniProt P32245, whole entry, looked up: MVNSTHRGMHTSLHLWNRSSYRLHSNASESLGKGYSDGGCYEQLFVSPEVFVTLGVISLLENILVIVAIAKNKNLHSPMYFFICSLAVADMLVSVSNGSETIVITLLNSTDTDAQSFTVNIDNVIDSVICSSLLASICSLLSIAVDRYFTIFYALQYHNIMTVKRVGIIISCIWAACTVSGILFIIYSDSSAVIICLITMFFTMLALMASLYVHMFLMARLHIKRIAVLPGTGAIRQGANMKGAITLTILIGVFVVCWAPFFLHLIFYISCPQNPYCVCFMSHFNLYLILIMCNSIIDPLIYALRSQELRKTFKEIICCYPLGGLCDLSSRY

Keys – A = UUG fidelity; B = ALR H2O2 inh; C = HDAC3 inh; D = NALP1 yeast inh; E = MC4R antag cAMP; F = MC4R ag barr
1	COc1ccc(C(=O)N/N=C\c2coc3ccc(Cl)cc3c2=O)cc1
  A: -16	B: 0	C: ·	D: -3	E: -5	F: -3
2	Cc1cccc(C(=O)N/N=C/c2coc3ccccc3c2=O)c1
  A: 0	B: 89*	C: 8	D: 8	E: -5	F: -2
3	CC(C)Oc1cccc(C(=O)N/N=C/c2coc3ccccc3c2=O)c1
  A: 0	B: 98*	C: 3	D: -6	E: -10	F: -3
4	O=C(C[C@H]1CC[C@H](NS(=O)(=O)c2ccccc2)[C@@H](CO)O1)NCc1ccncn1
  A: -15	B: ·	C: ·	D: ·	E: ·	F: ·
5	COc1cccc(S(=O)(=O)N[C@H]2CC[C@H](CCn3cc(-c4ccc(F)cc4)nn3)O[C@@H]2CO)c1
  A: 10	B: ·	C: ·	D: ·	E: ·	F: ·
6	Cc1ccc2[nH]cc(CCNC(=O)c3cccnc3)c2c1
  A: -8	B: 96*	C: 3	D: 10	E: 7	F: -1
7	Cc1ccc2[nH]cc(CCNC(=O)Nc3ccccc3)c2c1
  A: ·	B: 98*	C: 9	D: 6	E: 8	F: -1
8	CC(Sc1nc2ccccc2s1)C(=O)c1c(N)n(C)c(=O)n(C)c1=O (stereo unspecified)
  A: ·	B: 99*	C: 6	D: -12	E: 17	F: -3
9	CC(Sc1n[nH]c(-c2ccccc2)n1)C(=O)c1c(N)n(C)c(=O)n(C)c1=O (stereo unspecified)
  A: -23	B: -3	C: 6	D: ·	E: 0	F: 0
10	COc1ccc(C2CC(C(F)(F)F)n3nc(C(=O)O)c(Cl)c3N2)cc1OC (stereo unspecified)
  A: 335*	B: 1	C: -5	D: 1	E: 11	F: 2

Keys – A = UUG fidelity; B = ALR H2O2 inh; C = HDAC3 inh; D = NALP1 yeast inh; E = MC4R antag cAMP; F = MC4R ag barr
11	CSc1nc(NCCOCCO)c2sc3nc(-c4ccco4)c4c(c3c2n1)CCC4
  A: -13	B: 97*	C: 4	D: 1	E: -8	F: -1
12	CSc1nc(NCc2ccco2)c2sc3nc(C(C)C)c4c(c3c2n1)CC(C)(C)OC4
  A: -4	B: -12	C: -1	D: -46	E: -3	F: -1
13	CCN(CCO)c1nc(SC)nc2c1sc1nc(-c3ccco3)c3c(c12)CCC3
  A: -11	B: 97*	C: -2	D: 17	E: 1	F: 0
14	CCN(CCO)c1ncnc2c1sc1nc(C(C)C)c3c(c12)CC(C)(C)OC3
  A: -14	B: -3	C: -11	D: 16	E: 9	F: 0
15	O=C(NCCCN1CCOCC1)c1ccc(Br)s1
  A: 1	B: 4	C: -3	D: 27	E: 6	F: -2
16	O=C(NCCCN1CCOCC1)c1cc2c(s1)CSC2
  A: -10	B: 99*	C: -1	D: 11	E: 9	F: -4
17	CCCNC(=O)N(C)C[C@H]1Oc2ncc(-c3ccccc3)cc2C(=O)N([C@H](C)CO)C[C@@H]1C
  A: -5	B: ·	C: ·	D: ·	E: ·	F: ·
18	C=CCC1=C/C(=C\c2c(N)n3nc(CC(=O)N4CCCC4)sc3nc2=O)C=C(OC)C1=O
  A: -6	B: 50	C: -2	D: 29	E: 6	F: -2
19	CCOC1=C/C(=C/c2c(N)n3nc(CC(=O)N4CCCCC4)sc3nc2=O)C=CC1=O
  A: 1	B: 99*	C: 2	D: -6	E: 3	F: -4
20	COC1=C/C(=C/c2c(N)n3nc(CC(=O)N4CCCCC4)sc3nc2=O)C=CC1=O
  A: -15	B: 100*	C: 3	D: 4	E: -6	F: 1

Looked up above:
cpd 13 in NALP1 yeast inh shows 17
cpd 18 in MC4R antag cAMP shows 6
cpd 16 in UUG fidelity shows -10

Next section:
Keys – A = UUG fidelity; B = ALR H2O2 inh; C = HDAC3 inh; D = NALP1 yeast inh; E = MC4R antag cAMP; F = MC4R ag barr
21	Nc1c(C=C2C=CC(=O)C=C2)c(=O)nc2sc(CC(=O)N3CCOCC3)nn12
  A: ·	B: 98*	C: 9	D: 4	E: 0	F: -2
22	CCOC1=C/C(=C/c2c(N)n3nc(S(=O)(=O)CC)sc3nc2=O)C=CC1=O
  A: ·	B: 99*	C: 5	D: -54	E: 6	F: -1
23	COC1=CC(=Cc2c(N)n3nc(CC(=O)N4CCOCC4)sc3nc2=O)C=C(OC)C1=O
  A: -17	B: 51	C: 10	D: -4	E: -6	F: -1
24	Oc1cc(O)c2c(c1)O[C@H](c1ccc(O)c(O)c1)[C@H](O)C2
  A: -5	B: 99*	C: -1	D: 15	E: 5	F: 0
25	COc1ccc(-c2ccc3c(c2)O[C@@H](CN(C)C(C)=O)[C@@H](C)CN([C@@H](C)CO)S3(=O)=O)cc1
  A: 16	B: ·	C: ·	D: ·	E: ·	F: ·
26	Cc1ccc(C(=O)NC(=S)NNS(=O)(=O)c2ccc(C)cc2)cc1
  A: -12	B: 97*	C: -3	D: 23	E: 3	F: -3
27	Cc1ccc(S(=O)(=O)NNC(=O)c2ccc(O)cc2)cc1
  A: -2	B: 97*	C: 4	D: 23	E: -3	F: 1
28	Cc1ccc(S(=O)(=O)NNC(=S)Nc2ccc(Cl)cc2)cc1
  A: ·	B: ?	C: -6	D: 6	E: 3	F: -4
29	Cc1ccc(S(=O)(=O)NNC(=S)Nc2ccccc2)cc1
  A: -13	B: 99*	C: -15	D: 6	E: 3	F: 0
30	Cc1nnsc1C(=O)NNS(=O)(=O)c1cc(C(F)(F)F)cc(C(F)(F)F)c1
  A: ·	B: 33	C: 4	D: 19	E: 7	F: -2

Keys – A = UUG fidelity; B = ALR H2O2 inh; C = HDAC3 inh; D = NALP1 yeast inh; E = MC4R antag cAMP; F = MC4R ag barr
31	CC(=O)Nc1ccc(C(=O)NNS(=O)(=O)c2ccc(C)cc2)cc1
  A: -20	B: 54	C: 4	D: 18	E: 0	F: -1
32	Cc1ccc(S(=O)(=O)NNC(=O)c2snnc2C)cc1
  A: -12	B: 23	C: -1	D: 37*	E: 17	F: -2
33	COc1ccc(NC(=O)Nc2ccc3c(c2)C(=O)N([C@@H](C)CO)C[C@H](C)[C@@H](CN(C)S(=O)(=O)c2cn(C)cn2)OCCCC[C@H](C)O3)cc1
  A: 2	B: ·	C: ·	D: ·	E: ·	F: ·
34	CNC[C@@H]1OCCCC[C@H](C)Oc2ccc(NS(C)(=O)=O)cc2C(=O)N([C@H](C)CO)C[C@@H]1C
  A: 14	B: ·	C: ·	D: ·	E: ·	F: ·
35	C[C@@H]1CN([C@@H](C)CO)C(=O)Cc2cc(NC(=O)Nc3ccc4c(c3)OCO4)ccc2O[C@H]1CN(C)C(=O)Nc1ccccc1
  A: 18	B: ·	C: ·	D: ·	E: ·	F: ·
36	CCC(=O)N(C)C[C@H]1Oc2cc(C#CC(C)(C)O)ccc2S(=O)(=O)N([C@@H](C)CO)C[C@@H]1C
  A: -1	B: ·	C: ·	D: ·	E: ·	F: ·
37	C[C@H]1CN([C@@H](C)CO)C(=O)c2cc(NC(=O)Nc3ccc(F)cc3)ccc2O[C@H]1CN(C)Cc1ccncc1
  A: -12	B: ·	C: ·	D: ·	E: ·	F: ·
38	Cc1ccc(S(=O)(=O)NNC(=S)NC(=O)c2ccc([N+](=O)[O-])cc2)cc1
  A: ·	B: 93*	C: 15	D: -41	E: -5	F: 3
39	O=C(NNS(=O)(=O)c1ccc([N+](=O)[O-])cc1)c1ccc([N+](=O)[O-])cc1
  A: -6	B: -4	C: 1	D: 6	E: 19	F: 0
40	CCNc1ccc(C(=O)OCC)cc1NC(=O)c1cccc(N(C)C)c1
  A: ·	B: 0	C: -1	D: 2	E: -26	F: 1

Keys – A = UUG fidelity; B = ALR H2O2 inh; C = HDAC3 inh; D = NALP1 yeast inh; E = MC4R antag cAMP; F = MC4R ag barr
41	CCOC(=O)c1ccc(S(=O)(=O)NNC(=O)c2cccc(N(C)C)c2)cc1
  A: ·	B: 82*	C: 8	D: 3	E: 1	F: -2
42	Fc1ccc(C2CCCN2Cc2nc(Cc3ccccc3F)no2)cc1 (stereo unspecified)
  A: ·	B: -5	C: 2	D: 24*	E: 6	F: 2
43	C[C@@H]1CN([C@@H](C)CO)C(=O)c2cc(NS(=O)(=O)c3ccccc3)ccc2O[C@@H](C)CCCCO[C@@H]1CN(C)C(=O)c1ccncc1
  A: 4	B: ·	C: ·	D: ·	E: ·	F: ·
44	CCC(=O)N(C)C[C@H]1Oc2cc(C#Cc3ccncc3)ccc2S(=O)(=O)N([C@H](C)CO)C[C@H]1C
  A: 79	B: ·	C: ·	D: ·	E: ·	F: ·
45	CC1(C)CC(=O)C=C(OC(=O)c2ccc(Cl)cc2)C1
  A: ·	B: 98*	C: -7	D: 30	E: -6	F: -1

Quoted from above, entries 44–45
Keys – A = UUG fidelity; B = ALR H2O2 inh; C = HDAC3 inh; D = NALP1 yeast inh; E = MC4R antag cAMP; F = MC4R ag barr
44	CCC(=O)N(C)C[C@H]1Oc2cc(C#Cc3ccncc3)ccc2S(=O)(=O)N([C@H](C)CO)C[C@H]1C
  A: 79	B: ·	C: ·	D: ·	E: ·	F: ·
45	CC1(C)CC(=O)C=C(OC(=O)c2ccc(Cl)cc2)C1
  A: ·	B: 98*	C: -7	D: 30	E: -6	F: -1
